This is an account of results in patent US20160192658A1 (priority 2013, published 2016).

This test has as its system RS virus strain A2. Description: microbe, parasite or virus in culture. Conditions: human respiratory syncytial virus, HEp-2, 120 h, read-out: IC50 (50% infection inhibitory concentration).

`NC(=O)c1ncn([C@@H]2O[C@H](CO)[C@@H](O)[C@H]2O)n1` [Ribavirin, ribavirin]: the IC50 worked out at 13.4 µM.
